One substance from US8633227B2, “Synthesis and novel salt forms of (R)-3-((E)-pyrrolidin-3-yl)vinyl)-5-tetrahydropyran-4-yloxy)pyridine” (priority 2008, dated 2014) can be followed below.

The nature of the series: Preliminary salt screen. The format is physicochemical. The following applies: equi-millimolar base and acid, 2-propanol or acetonitrile, alternative solvents. The method, then:
Test tubes (4 mL), provided with magnetic stir bars, were charged with equi-milimolar amounts of (R)-3-((E)-2-(pyrrolidin-3-yl)vinyl)-5-(tetrahydropyran-4-yloxy)pyridine base and the acid of interest (neat) and dissolved with 500 μL of either 2-propanol or acetonitrile with the aid of heat.
If no precipitation occurred, the solvent was evaporated under a nitrogen stream with moderate heating and an alternative solvent was tried. Alternative solvents included acetone, ethyl acetate, isopropyl acetate, absolute ethanol, acetonitrile, hexane, tert-butanol, tert-butyl acetate, and blends thereof.
The use of alcohols was avoided in the case of sulfonic acids.

With Phosphoric, the “Result of preliminary salt screen (physical form obtained)” value is “Gum”.
